Earlier results in patent US6700032B1, “Wound care management” (Leatherite Pty Limited, priority 1996, dated 2004).

Substance: 2,4,4′-trichloro-2′-hydroxy diphenyl ether [Triclosan]
- solubility in organic solvents (many organic solvents): highly soluble
- solubility in water (water): poorly soluble
